Data taken from patent US11066405B2, “Bicyclic compounds and their use in the treatment of cancer” (Tempest Therapeutics, Inc., priority 2017, dated 2021).

Amino acid sequences for entries named in this document (tags omitted).
UniProt P35408, whole entry: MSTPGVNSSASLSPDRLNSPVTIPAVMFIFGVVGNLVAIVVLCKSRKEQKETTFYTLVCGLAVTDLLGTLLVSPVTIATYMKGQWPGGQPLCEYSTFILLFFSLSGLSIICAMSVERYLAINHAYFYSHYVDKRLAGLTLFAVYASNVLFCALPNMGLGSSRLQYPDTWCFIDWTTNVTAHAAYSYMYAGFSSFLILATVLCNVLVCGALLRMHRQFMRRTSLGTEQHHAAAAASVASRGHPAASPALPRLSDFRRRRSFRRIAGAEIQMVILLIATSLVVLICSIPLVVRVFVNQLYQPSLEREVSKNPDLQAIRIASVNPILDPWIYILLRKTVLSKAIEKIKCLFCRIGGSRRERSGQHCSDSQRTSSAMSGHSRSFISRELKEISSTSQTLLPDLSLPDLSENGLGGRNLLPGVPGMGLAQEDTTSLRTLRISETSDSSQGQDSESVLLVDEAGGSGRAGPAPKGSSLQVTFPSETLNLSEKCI

Target: EP4 (Homo sapiens, UniProt P35408)
Assay: EP4 Ca2+-flux assay (functional calcium flux assay, stably transfected HEK293 cells)
Conditions: read-out: EP4 Ca2+-flux assay IC50; HEK293 cells stably transfected with EP4; ligand PGE2 10 nM; luminescence readout
Method: The compounds in the present disclosure were tested in a functional calcium flux assay using stably transfected HEK293 cells. Cells transfected with EP1, EP2, EP3 and EP4 were purchased from Eurofins Discovery Services (St. Charles, Mo.). Each receptor subtype has an additional promiscuous G protein added in order to couple to the calcium signaling pathway. The parental cell line used also expresses a novel variant of clytin, a calcium-activated photo-protein, to enable sensitive luminescent detection.
Cells were plated at 50,000 cells per well in black, clear bottom 96-well plates. The plated cells were allowed to sit at room temperature for 30 min prior to transferring to a humidified, 37° C., 5% CO2 incubator for 18-24 h. Assay buffer (HBSS with 20 mM HEPES) and loading buffer (assay buffer plus 10 μM Coelenterazine) were prepared on the day of the assay. Assays were performed by aspirating media from the assay plate and washing once with assay buffer, then replacing with loading buffer and allowing the cells to incubate for 1.5 h at room temperature. Compounds were prepared in assay buffer at a 3× final concentration in non-binding plates. Compounds were added to the cell plates and incubated for 30 min at room temperature. The prostanoid receptor ligand PGE2 was prepared at a 4× dilution ratio for a final concentration of 10 nM. Plates were run on a Flexstation™ using a 100 ms integration luminescence protocol for a total of 60 sec with ligand addition at 15 sec. Data were obtained from relative light units as measured by area under the curve.

| SMILES | IC50 |
| --- | --- |
| O=C(NC1CC2(C1)CC(C(=O)O)C2)c1cncc2ccn(Cc3ccc(C(F)(F)F)cc3)c12 (single isomer, unassigned) [10, first eluting] | 0.02 µM |
| O=C(NC1CC2(C1)CC(C(=O)O)C2)c1ccc(F)c2ccn(Cc3ccc(C(F)(F)F)cc3)c12 (single isomer, unassigned) [20, second eluting] | 0.00031 µM |
| O=C(NC1CC2(C1)CC(C(=O)O)C2)c1cccc2ccn(Cc3ccc(C(F)(F)F)cc3)c12 (single isomer, unassigned) [8, second eluting] | 0.00019 µM |
| O=C(NC1CC2(C1)CC(C(=O)O)C2)c1cncc2ccn(Cc3ccc(C(F)(F)F)cc3)c12 (single isomer, unassigned) [10, second eluting] | 0.00013 µM |
| O=C(NC1CC2(C1)CC(C(=O)O)C2)c1ccc(F)c2ccn(Cc3ccc(C(F)(F)F)cc3)c12 (single isomer, unassigned) [20, first eluting] | 0.024 µM |
| O=C(NC1CC2(C1)CC(C(=O)O)C2)c1cccc2ccn(Cc3ccc(C(F)(F)F)cc3)c12 (single isomer, unassigned) [8, first eluting] | 0.52 µM |
